# Data reported in patent US5436251A, “Treatment of anxiety and gastrointestinal disorders with azabicyclo carbonyl-2-(cyclopropylmethyloxy)benzamide” (John Wyeth & Brother, Limited, priority 1992, dated 1995).
# Sequences of proteins named here, by UniProt entry; tags and fusion partners are left off. Residues count along the entry.
# UniProt P35563, 24-483 limits assumed: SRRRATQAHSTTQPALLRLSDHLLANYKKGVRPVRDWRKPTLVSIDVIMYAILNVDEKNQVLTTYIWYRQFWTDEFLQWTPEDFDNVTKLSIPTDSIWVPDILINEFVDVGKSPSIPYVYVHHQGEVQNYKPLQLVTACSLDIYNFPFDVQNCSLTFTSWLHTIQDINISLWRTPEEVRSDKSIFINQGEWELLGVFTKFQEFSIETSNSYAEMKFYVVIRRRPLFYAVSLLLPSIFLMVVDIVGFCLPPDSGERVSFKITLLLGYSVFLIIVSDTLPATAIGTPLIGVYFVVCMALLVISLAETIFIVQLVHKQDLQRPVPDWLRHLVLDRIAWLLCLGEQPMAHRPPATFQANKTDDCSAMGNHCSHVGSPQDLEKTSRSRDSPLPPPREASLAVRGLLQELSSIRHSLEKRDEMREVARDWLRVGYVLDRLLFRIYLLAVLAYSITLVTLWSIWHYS
# Assays:
# [1] = target: 5-HT3 receptors (Rattus norvegicus, UniProt P35563); assay: 5-HT3 antagonistic activity in the rat vagus (antagonism of 5-HT depolarization of isolated vagus nerve, Schild analysis); set-up: species or system rat (Sprague-Dawley); settings: rat vagus nerve in vitro, tested form: fumarate
# Procedure: Compound A, the compound of GB 2236528A and the compounds disclosed in GB 2213816A are tested for 5-HT3 antagonistic activity in the rat vagus by the following procedure:
# The method is similar to that described by Ireland and Tyers, Br. J. Pharmac., 1987, 90, 229-238 and is dependent upon the ability of 5-HT to depolarize the vagus nerve in vitro.
# Segments of the vagus nerve from Sprague-Dawley rats were placed in a perspex chamber and perfused with Krebs solution. Electrodes, positioned at either end of the nerve segment, were used to record the potential differences which ensued upon the addition of various concentrations of 5-HT to one end of the nerve segment.
# Concentration-response curves to 5-HT were obtained in this manner prior to and following equilibration of the nerve segment with Krebs solution containing the test-substance.
# [2] = Potential anxiolytic activity: mouse exploratory activity in a two-compartment light/dark box; settings: s.c.; significant (p<0.05) increase in rearing activity in the light section; tested form: fumarate
# Procedure: Compound A, the compound of GB 2236528A and a representative number of compounds disclosed in GB 2213816A which had high pA2 values in the 5-HT3 -antagonist test procedure given above were tested for potential anxiolytic activity by a test procedure measuring mouse exploratory activity in a two-compartment light/dark box based upon the procedure of B Costall et al, Neuropharmacology, 1987, 26, 195-200 and J. N. Crawley et al, Pharmac. Biochemo Behav., 1980, 13, 167-170. The test involves observing groups of mice placed in an open topped box, one third of which is painted black and illuminated under a dim red light and partitioned from the remainder of the box which is painted white and brightly illuminated. Access between the two sections is via an opening in the centre of the partition. The groups of mice are treated with vehicle or test compound and various behavioural parameters of the animals are measured including the number of exploratory rearings made by the mice in each section and the number of times the mice cross lines marked on the floor of each section. For each treatment group the mean numbers of line crossings and rears in each section of the box are calculated. Differences between drug-treated groups and vehicle-treated controls are compared using Student's unpaired t-test. […]
smiles,measurement,setting,value
COc1ccccc1C(=O)NC(=O)NC1CN2CCC1CC2 (centres unmarked),pA2,[1],8.0
same,minimum effective dose (MED),[2],0.1 mg/kg
